Test results published in BindingDB's records for doi:10.1016/j.ejmech.2017.05.035 (Universidade Estadual De Feira De Santana, 2017).

Test: Antagonist activity at Adenosine receptor subtype 2B in human RBC assessed as change in erythrocyte morphology incubated for 3 hrs with occasional gentle stirring for every 30 min measured for every 12 hrs by microscopic analysis

EC50: 23 nM
Structure (SMILES): CCCn1c(=O)c2[nH]c(-c3ccc(OCC(=O)Nc4ccc(C#N)cc4)cc3)nc2n(CCC)c1=O
